# Results taken from US10857082B2, “Diarylalkanes as potent inhibitors of binuclear enzymes” (Unigen, Inc., priority 2004, dated 2020).
# By UniProt entry, the sequences of proteins in these tests, tags left out. Residues count along the entry.
# UniProt C7FF04, 1-392 limits assumed: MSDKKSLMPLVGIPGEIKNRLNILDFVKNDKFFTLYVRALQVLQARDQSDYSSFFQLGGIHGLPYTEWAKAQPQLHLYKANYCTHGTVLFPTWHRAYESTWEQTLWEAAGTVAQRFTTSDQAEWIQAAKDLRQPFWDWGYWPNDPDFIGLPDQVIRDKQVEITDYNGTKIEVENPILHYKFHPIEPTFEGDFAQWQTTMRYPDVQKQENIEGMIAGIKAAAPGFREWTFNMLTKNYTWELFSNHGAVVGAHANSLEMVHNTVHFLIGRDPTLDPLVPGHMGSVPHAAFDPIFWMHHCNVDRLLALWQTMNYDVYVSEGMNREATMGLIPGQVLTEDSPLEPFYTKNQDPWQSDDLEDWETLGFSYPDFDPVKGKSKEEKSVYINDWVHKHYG
# Key:
# [1] = test system: B16 F1 cells; experiment: Inhibition of melanin production in B16 F1 cells without β-MSH induction (endogenous)
# Method: (§1) The inhibition of melanin production was evaluated using two different assays. In the first assay, the inhibition of melanin production was evaluated without induction by β-MSH; whereas in the second assay the inhibition of melanin production was measured with β-MSH induction in cell culture medium. Briefly, B16 F1 cells (ATCC #CRL-622) were grown to confluency and then seeded at 40,000 cells per well. The cells were allowed to attach overnight at 37° C. in a humidified environment containing 5% CO2. On day 2, inhibitors were added to the cells at concentrations ranging from 0-1000 μM in triplicate and allowed to incubate for four days. The amount of β-MSH required to induce melanin formation was determined by the addition of hormone at concentrations ranging from 0-1000 nM in ten-fold increments. Once the proper β-MSH concentration was determined, cells were seeded as above, allowed to attach overnight and then co-incubated with tyrosinase inhibitors at concentrations ranging from 0-1000 μM. Color development was visually monitored each morning. After the development of color, 200 μl of cell supernatant was removed from each well and absorbance was measured at 450 nm. The resulting readings were used to determine the IC50 for melanin formation in the cell assay with and without β-MSH induction. […]
# [2] = molecular target: mushroom tyrosinase (Agaricus bisporus, UniProt C7FF04); experiment: Tyrosinase inhibition assay (L-DOPA to dopachrome, absorbance at 450 nm); assay type: biochemical
# [3] = test system: B16 F1 cells; experiment: Inhibition of melanin production in B16 F1 cells with β-MSH induction; details: read-out: IC50 for melanin formation, induced experiment
# Method: as §1
smiles,measurement,setting,value
COc1ccc(CCCc2cc(O)ccc2O)c(OC)c1C,"Inhibition of melanin production relative to kojic acid, in words","[1]; B-16 cell line model, with and without β-MSH induction","at least as good, if not better inhibitors than kojic acid"
same,IC50,"[1]; read-out: IC50 for melanin formation, endogenous experiment, B16 F1 cells, without β-MSH induction",5.2 µM
same,Tyrosinase inhibitory activity in words,[2],strong tyrosinase inhibitory activity
same,IC50,"[2]; read-out: IC50 for inhibition of tyrosinase, listed as IP302b",1.2 µM
same,IC50,[3],34 µM
